In publication PMC8078842 (PLoS Neglected Tropical Diseases, 2021):

Test system: MDR1-MDCK cells
Settings: 10 µM

## N=C(N)c1ccc(OCCCCCOc2ccc(C(=N)N)cc2)cc1 [Pentamidine, 1,5-bis-4ρ-amidinophenoxypentane]
dog, MDCK-MDR1, 1 h, pH 7.4
  Mass balance A2B: 74.5%
  Mass balance B2A: 72.7%

## CC(C)NCC(O)COc1cccc2ccccc12 (stereo not shown) [propranolol]
UPLC-MS/MS
  Mass balance A2B: 81.5%
  Mass balance B2A: 84.4%

Read-outs that look alike come from different tables or passages of the source.
